Source: patent US9751885B2, “Cyclopropanamine compound and use thereof” (Takeda Pharmaceutical Company Limited, priority 2012, dated 2017)
Where a name gives a salt, the structure may show the parent alone. Read-outs that look alike come from different tables or passages of the source.

Tested on: white blood cell number, red blood cell number, platelet number
Settings: mouse, in vivo, po

CC(=O)N1CCC(N[C@@H]2C[C@H]2c2cccc(C(=O)Nc3ccc(F)cc3)c2)CC1 (relative stereo) [Example 206, 3-(trans-2-((1-acetylpiperidin-4-yl)amino)cyclopropyl)-N-(4-fluorophenyl) benzamide hydrochloride]
platelet number, percentage of compound administration group compared to control group, mean (10 mg/kg): 85.5%
red blood cell number, percentage of compound administration group compared to control group, mean (10 mg/kg): 102.1%
white blood cell number, percentage of compound administration group compared to control group, mean (10 mg/kg): 92.7%
platelet number, percentage of compound administration group compared to control group, mean (100 mg/kg): 84.3%
red blood cell number, percentage of compound administration group compared to control group, mean (100 mg/kg): 102.3%
white blood cell number, percentage of compound administration group compared to control group, mean (100 mg/kg): 130.7%
